This test deals with T1, human adenosine A3 receptor (Homo sapiens, UniProt P0DMS8).
T1 construct: full length cDNA encoding human adenosine A3 receptor subcloned in pcDNA3; expressed in transfected cells; host or cells: chick embryo atrial myocytes, transient calcium phosphate transfection with pcDNA3/hA3R
The experiment in a line: Preconditioning in chick atrial myocytes transfected with the human A3 receptor. The format is cell-based. The following applies: hA3R-transfected vs vector-transfected atrial myocytes. The method, then: Transfection of chick atrial myocytes with the human A3 receptor—Atrial cells were cultured from chick embryos 14 days in ovo and transiently transfected with pcDNA3 (empty vector) or with pcDNA3/hA3R (full length cDNA encoding human adenosine A3 receptor subcloned in pcDNA3) using the calcium phosphate precipitation method. Forty-eight hours after transfection, the cells were exposed to the compounds of the invention and the percentage of myocytes killed during simulated ischemia was determined.
The transfected myocytes were then exposed to the compound for 5 minutes, which was followed by replacement with fresh media and myocytes exposed to normal conditions (non-ischemic) for 10 minutes prior to being exposed to ninety minutes of ischemia. The decrease in the number of myocytes killed in A3 receptor cDNA-transfected myocytes as compared to vector-transfected myocytes was plotted as a function of the concentration of the compound. This decrease in myocytes killed represented an index of the protection mediated via the human adenosine A3 receptor.

Amino acid sequences for entries named in this document (tags omitted).
UniProt P0DMS8, whole entry: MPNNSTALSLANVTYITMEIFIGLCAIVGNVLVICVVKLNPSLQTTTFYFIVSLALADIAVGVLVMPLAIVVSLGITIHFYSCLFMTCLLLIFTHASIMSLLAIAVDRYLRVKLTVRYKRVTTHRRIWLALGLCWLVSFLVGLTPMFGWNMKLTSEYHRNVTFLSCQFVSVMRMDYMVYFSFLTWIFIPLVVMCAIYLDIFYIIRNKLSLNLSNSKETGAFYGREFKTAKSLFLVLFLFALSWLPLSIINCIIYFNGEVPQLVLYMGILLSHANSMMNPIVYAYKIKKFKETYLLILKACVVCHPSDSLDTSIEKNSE

Consider `CNC(=O)[C@H]1O[C@@H](n2cnc3c(NCc4cccc(I)c4)nc(Cl)nc32)[C@H](O)[C@@H]1O` [Cl-IB-MECA, 2-chloro-N^6-(3-iodobenzyl)adenosine-5′-N-methyluronamide], for which the “preconditioning / protection mediated via human adenosine A3 receptor” value is recorded as “significantly greater in the cells transfected with the human A3 receptor encoding cDNA than in untransfected or cells transfected with empty vector”.

These data come from patent US6586413B2, “Methods and compositions for reducing ischemic injury of the heart by administering adenosine receptor agonists and antagonists” (The United States of America as represented by the …, priority 1999, dated 2003).
